Reference: PubChem BioAssay AID504357 (The Scripps Research Institute Molecular Screening Center, 2011)
The list shows a part of the results, in another mix than the full data. The source made the active and inactive calls. Cut-off read from the data, not from the text of the source: active = inhibition above about 22% (passing the limit was not always enough); inactive = the rest.

By UniProt entry, the sequences of proteins in these tests, tags left out.
UniProt P35372, whole entry, looked up: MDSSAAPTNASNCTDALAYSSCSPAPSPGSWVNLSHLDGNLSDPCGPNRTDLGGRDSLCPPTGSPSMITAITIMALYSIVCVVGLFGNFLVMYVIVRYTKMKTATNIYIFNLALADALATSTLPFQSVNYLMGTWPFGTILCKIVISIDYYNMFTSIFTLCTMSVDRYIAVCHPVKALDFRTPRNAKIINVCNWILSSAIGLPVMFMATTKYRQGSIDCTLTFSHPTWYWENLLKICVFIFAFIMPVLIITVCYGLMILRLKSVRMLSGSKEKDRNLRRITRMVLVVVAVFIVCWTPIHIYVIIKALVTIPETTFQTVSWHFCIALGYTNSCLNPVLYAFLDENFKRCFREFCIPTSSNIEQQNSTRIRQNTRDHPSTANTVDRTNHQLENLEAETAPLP
UniProt P41143, whole entry, looked up: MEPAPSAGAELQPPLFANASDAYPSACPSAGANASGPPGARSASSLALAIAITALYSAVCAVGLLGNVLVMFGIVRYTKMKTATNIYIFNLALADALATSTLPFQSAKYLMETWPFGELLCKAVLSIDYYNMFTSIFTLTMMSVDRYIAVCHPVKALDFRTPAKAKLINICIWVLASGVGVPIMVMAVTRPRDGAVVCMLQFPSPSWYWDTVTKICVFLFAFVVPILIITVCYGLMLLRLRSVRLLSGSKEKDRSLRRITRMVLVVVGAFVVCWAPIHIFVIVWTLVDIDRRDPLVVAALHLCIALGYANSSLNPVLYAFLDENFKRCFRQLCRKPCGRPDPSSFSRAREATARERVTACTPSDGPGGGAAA

target: Mu-type opioid receptor (Homo sapiens) + Delta-type opioid receptor (Homo sapiens) (UniProt P35372+P41143); experiment: inverse agonists of MOR-DOR heterodimerization, primary screen, cell-based, luminescence (AID 504357); conditions: cell-based MOR-DOR heterodimer luminescence, inverse agonism; at 9.3 µM; hits give high values;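 note: 0% = cells with DMSO and 100% = wells without cells with DMSO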

Compound | inhibition
Cc1ccc2c(c1)C1CN(C)CCC1N2C(=O)c1cccc(S(=O)(=O)N(C)C)c1 (configuration not stated) | inactive: 11.1%
CC(C)N(C(=O)Cn1c(SCC(=O)Nc2nccs2)nc2ccccc21)C(C)C | inactive: 6.16%
CSc1nc(N)nc2c1ncn2CC(=O)NCC(c1ccccc1)c1ccccc1 | inactive: 11.4%
CC1CN(CCn2cnc3c(N)ncnc32)CC(C)O1 (configuration not stated) | inactive: 16.1%
O=C(OC1CN2CCC1CC2)c1ccccc1 (configuration not stated) | inactive: 22.6%
CC(O)CNc1nc2ccccc2n1CC(=O)NC12CC3CC(CC(C3)C1)C2 (configuration not stated) | inactive: -7.26%
CC(C(=O)Nc1ccc2c(c1)OCO2)n1cnc2c1c(=O)n(C)c(=O)n2C (configuration not stated) | inactive: 11.5%
Cc1ccc(OP(=O)(Nc2ccccn2)Oc2ccc(C)cc2)cc1 | inactive: 8.48%
CC(=O)NC(SC(=S)N(CC(C)C)CC(C)C)C(Cl)(Cl)Cl (configuration not stated) | inactive: -17.5%
FC(F)(F)c1nc2ccccc2n1CCNc1nc(CN2CCCCC2)cs1 | inactive: 14.6%
Cn1c(=O)c2c(ncn2CC(=O)Nc2ccccc2N2CCOCC2)n(C)c1=O | inactive: 6.75%
CCc1cccc(CC)c1N(COC)C(=O)Cn1c(C(C)O)nc2ccccc21 (configuration not stated) | inactive: 11.9%
CC(/C=N/NC(=O)Cn1cnc2c1c(=O)n(C)c(=O)n2C)=C\c1ccco1 | inactive: 12.1%
CC(C)NC(=O)Cn1cnc2c1c(=O)n(C)c(=O)n2C | inactive: 8.64%
Cc1sc2ncnc(NC3CCN(Cc4ccccc4)CC3)c2c1C | inactive: -13.8%
COC(=O)c1cc2c(s1)N=C(c1ccccc1)N(C)P2(=O)N1CCOCC1 (configuration not stated) | inactive: -4.8%
Cn1c(=O)c2c(ncn2CC(=O)NC2CCCCC2)n(C)c1=O | inactive: 8.11%
Cc1nc2ccccc2n1CC(=O)NC1CCCC1 | inactive: 16.7%
CCOCN(C(=O)Cn1c(CO)nc2ccccc21)c1c(C)cccc1CC | inactive: -11.3%
Cc1ccc(Cn2nnnc2CN2CCC(n3nnc4ccccc43)CC2)cc1 | inactive: 14.2%
O=c1oc2ccccc2c2c1ncn2CCN1CCOCC1 | inactive: 7.94%
COc1ccc(OC)c(C(=O)CSc2nc3ccccc3n2CC(=O)NC(C)(C)C)c1 | inactive: 12.4%
O=C(Cn1c2[n+](c3ccc(C(F)(F)F)cc31)CCCCC2)Nc1ccccc1 | inactive: 4.91%

Compound | inhibition
COc1ccccc1OCCSc1nc2ccccc2n1CC(N)=O | inactive: 16.4%
C[C@H]1OP(=O)(Oc2ccccc2)[C@H](O)[C@H](O)[C@H]1N=[N+]=[N-] (some centres not stated) | inactive: 5.6%
Cc1cc2ncn(C3CC(=O)N(Cc4ccc(N5CCCC5=O)cc4)C3=O)c2cc1C (configuration not stated) | inactive: 8.67%
CCN(CC)CCn1c(NS(=O)(=O)c2ccc(Cl)cc2)nc2ccccc21 | inactive: -8.32%
CC(C)N(C(=O)Cn1c(SCC(=O)NC2CC2)nc2ccccc21)C(C)C | inactive: 12.4%
O=P(Nc1nc2ccccc2s1)(c1ccccc1)c1ccccc1 | inactive: 16.1%
Cn1c(=O)c2c(ncn2CC(=O)Nc2nc(-c3ccc(F)c(F)c3)cs2)n(C)c1=O | inactive: 5.08%
Cn1c(=O)n(CC(=O)Nc2cccnc2)c2ccccc21 | inactive: 5.59%
N=c1n(CCN2CCCC2)c2ccccc2n1CC(O)c1ccco1 (configuration not stated) | inactive: 22.6%
Cn1c(=O)c2c(ncn2CC(=O)N2CCOCC2)n(C)c1=O | inactive: 14.3%
C[C@H](NC(=O)N1CCn2c1nc1ccccc12)C(=O)NCCc1ccccc1 | inactive: 17.3%
CC(O)CNc1nc2ccccc2n1CC(=O)NCC(F)(F)F (configuration not stated) | inactive: 10.6%
O=C(CSc1nc2ccccc2n1CC(=O)N1CCCC1)N1CCN(C(=O)c2ccco2)CC1 | inactive: 3.54%
CCN(CC)CCn1c(N)nc2ccccc21 | inactive: 1.42%
Cc1ccc(C(C(=O)NC2CCCCC2)N(Cc2ccco2)C(=O)Cn2cnc3ccccc32)cc1 (configuration not stated) | inactive: -15.5%
CCN(CC)CCn1c(NCc2ccccn2)nc2ccccc21 | inactive: -0.82%
O=P(Nc1ccccn1)(c1ccc(Br)cc1)c1ccc(Br)cc1 | inactive: 10.9%
CCN(CC)CCn1c(=N)n(CC(=O)c2ccc(C)cc2)c2ccccc21 | inactive: -49.4%
NC(=O)Cn1c2[n+](c3ccccc31)CC(O)CS2 (configuration not stated) | inactive: 18.2%
CCC(=O)Nc1ccc(NC(=O)/C=C/c2ccc(Cl)cc2)cc1 | inactive: 0.53%
c1ccc2c(c1)nc(NCc1ccc3c(c1)OCO3)n2CCN1CCOCC1 | inactive: 25.5%
COc1ccc(N)c([N+](=O)[O-])c1[N+](=O)[O-] | inactive: 9.92%
CC(C)(C)NC(=O)Cn1c(Cl)nc2ccccc21 | inactive: 13.5%

Compound | inhibition
Cc1ccc(/C=N/NC(=O)Cn2cnc3c2c(=O)n(C)c(=O)n3C)s1 | inactive: -2.19%
COC(=O)[C@H](CC(C)C)NC(=O)Cn1cnc2c(NCc3ccccc3)ncnc21 | inactive: 12.5%
O=C(Cn1cnc2ccccc21)Nc1ccc2c(c1)OCCCO2 | inactive: 0.15%
Cc1nnc(NC(=O)Cn2cnc3c2c(=O)n(C)c(=O)n3C)s1 | inactive: 7.71%
CC(O)c1nc2ccccc2n1CC(=O)Nc1ccc2c(c1)OCCO2 (configuration not stated) | inactive: -0.49%
CSCC[C@H](NC(=O)N1CCn2c1nc1ccccc12)C(=O)NCC1CCCO1 (some centres not stated) | inactive: 14.7%
CSc1ccccc1NC(=O)Cn1c(-c2cscn2)nc2ccccc21 | inactive: 16.9%
O=C(Cn1cnc2ccccc21)N/N=C/c1ccccn1 | inactive: 18.4%
O=C(Cn1cnc2c(OCc3ccccc3)ncnc21)NCc1nc2ccccc2[nH]1 | inactive: 20.6%
O=C(OC1CN2CCC1CC2)c1cccc(Cl)c1 (configuration not stated) | inactive: 11.1%
CC(C)C[C@H](NC(=O)N1CCn2c1nc1ccccc12)C(=O)N[C@@H](Cc1ccccc1)C(=O)O | inactive: 0.92%
COc1ccc(N2C(=O)CC(N3CCC(n4c(=O)[nH]c5ccccc54)CC3)C2=O)cc1 (configuration not stated) | inactive: 12.5%
CCn1c(N)[n+](CC(=O)Nc2ccc(SC(F)F)cc2)c2ccccc21 | inactive: -229%
O=C(Nc1cccc(F)c1)N1CCC(n2c(=O)[nH]c3ccccc32)CC1 | inactive: -3.35%
COc1cc(C(=O)OCCn2c(=O)c3c(ncn3CCN(C)C)n(C)c2=O)cc(OC)c1OC | inactive: 5.36%
COCCOC(=O)C1=C(C)N=C2SCCC(=O)N2C1/C=C/c1ccccc1 (configuration not stated) | inactive: -1.72%
Cc1ccc2c(c1)C1CN(C)CCC1N2C(=O)/C=C/c1ccc2c(c1)OCO2 (configuration not stated) | inactive: 2.63%
O=C(Cn1c(CC(=O)N2CCCC2)nc2ccccc21)NCc1ccccc1 | inactive: -3.77%
COc1ccc(CCNC(=O)Cn2cnc3c2c(=O)n(C)c(=O)n3C)cc1OC | inactive: 7.56%
Cn1c(=O)[nH]c(=O)c2c1nc(CN(Cc1ccccc1)Cc1ccccc1)n2CCN1CCOCC1 | inactive: 14.6%
C(Cc1nn[nH]n1)Cc1nn[nH]n1 | inactive: 15.7%
O=C(Nc1ccccc1Cl)N1CCn2c(nc3ccccc32)C1 | inactive: 7.34%
CSCC[C@H](NC(=O)N1CCn2c1nc1ccccc12)C(=O)NCc1ccc(F)cc1 | inactive: 9.99%

Compound | inhibition
N=c1n(CCO)c2ccccc2n1CCN1CCCCC1 | inactive: 3.28%
Nc1ccc([As](=O)(O)c2ccc([N+](=O)[O-])cc2)cc1 | inactive: 5.86%
COc1ccc(C(=O)N2CCn3c2nc2ccccc23)cc1 | inactive: 8.52%
CC(=O)Nc1ccc2c(c1)nc1n2CCN(C(C)c2ccccc2)C1 (configuration not stated) | inactive: 18.4%
CN(C)C(=O)Cn1c(SCC(=O)NC2CCCCC2)nc2ccccc21 | inactive: -0.38%
CCN(CC)CCn1c(NC(=O)c2ccccc2O)nc2ccccc21 | inactive: -31.2%
Cc1nc2ccc(S(=O)(=O)NC(C(=O)N3CCn4c3nc3ccccc34)C(C)C)cc2s1 (configuration not stated) | inactive: 10.4%
COCC(C)NC(=O)Cn1c(SCc2ccccc2)nc2ccccc21 (configuration not stated) | inactive: 12.2%
CS(=O)(=O)Cc1nc2ccccc2n1CC(=O)Nc1cccc(S(=O)(=O)N2CCCC2)c1 | inactive: 11.3%
CCOc1ccc(NC(=O)N2CCC(n3c(=O)[nH]c4ccccc43)CC2)cc1 | inactive: -2.64%
O=C(Cn1c(=O)n(CC2CS2)c2ccccc21)N1CCCCC1 (configuration not stated) | inactive: 10.5%
Cc1nc2cc(C(F)(F)F)ccc2n1C1CCN(Cc2nnnn2Cc2cccs2)CC1 | inactive: 1.29%
O=C(Cn1cnc2c(NCc3ccccc3)ncnc21)NCc1ccccc1 | inactive: 18.4%
CC1CCCC(NC(=O)Cn2c(Cl)nc3c2c(=O)n(C)c(=O)n3C)C1C (configuration not stated) | inactive: 13.8%
O=[As](O)(c1ccccc1)c1ccc(O)cc1 | inactive: 11.4%
CCn1nccc1C(=O)Nc1nc2ccccc2n1CCN1CCCCC1 | inactive: 8.48%
N=c1n(CCN2CCOCC2)c2ccccc2n1CC(=O)c1ccc(Cl)c(Cl)c1 | inactive: -8.93%
CCOC(=O)C1=C(Cn2cnc3ccccc32)NC(=O)NC1c1cc(C)ccc1C (configuration not stated) | inactive: 11.4%
O=[N+]([O-])c1ccc(O)c(/C=N/Nc2ccc([N+](=O)[O-])cc2[N+](=O)[O-])c1 | inactive: -9.53%
O=[N+]([O-])c1ncn(CCn2cnc([N+](=O)[O-])n2)n1 | inactive: 0.14%
CC(=O)NC(SC(=S)N(C)C)C(Cl)(Cl)Cl (configuration not stated) | inactive: 1.96%
O=C(Cn1cnc2c(OCc3ccccc3)ncnc21)NCc1ccc2[nH]ccc2c1 | inactive: 13.4%
CCC(=O)Nc1cccc(C(=O)/C=C/c2ccccc2)c1 | inactive: -16.7%
